Tested on: 3T3-L1 cells
Test: Glucose transport assay, uptake of 2-deoxy-D-[3H]glucose in differentiated 3T3-L1 cells
Assay type: cell-based, mouse
Details: insulin treatment alone (100 nM)
Experimental: The effect of one of the 15-keto prostaglandin-Δ^13-reductase inhibitors, i.e., 3,3′-methylene-bis(4-hydroxycoumarin), on insulin sensitivity was examined as follows. 3T3-L1 cells were induced to differentiate in the same manner as described above. A glucose transport assay was performed by measuring uptake of 2-deoxy-D-[3H]glucose as described by Fingar et al. See Fingar et al., Endocrinology 134:728-735. 1.67 μM of the inhibitor or 45 nM of a PPAR agonist, i.e., AVANDIA, was added to the cells. 10 μM cytochalasin-B was used to measure background glucose uptake levels. 100 nM of insulin was used to stimulate glucose uptake. Insulin treatment alone in differentiated 3T3-L1 cells increased glucose uptake by 20 folds. In the presence of this 15-keto prostaglandin-Δ^13-reductase inhibitor, glucose uptake was increased by 30 folds.

Insulin [reference compound]
increase of glucose uptake: 20 folds
